Test results as given in ChEMBL document CHEMBL1131204, “Flavonoid derivatives as adenosine receptor antagonists: a comparison of the hypothetical receptor binding site based on a comparative molecular field analysis model” (J Med Chem, 1998).

Protein sequences, listed by entry. Tags and fused reporters are not part of them.
UniProt P0DMS8, whole entry: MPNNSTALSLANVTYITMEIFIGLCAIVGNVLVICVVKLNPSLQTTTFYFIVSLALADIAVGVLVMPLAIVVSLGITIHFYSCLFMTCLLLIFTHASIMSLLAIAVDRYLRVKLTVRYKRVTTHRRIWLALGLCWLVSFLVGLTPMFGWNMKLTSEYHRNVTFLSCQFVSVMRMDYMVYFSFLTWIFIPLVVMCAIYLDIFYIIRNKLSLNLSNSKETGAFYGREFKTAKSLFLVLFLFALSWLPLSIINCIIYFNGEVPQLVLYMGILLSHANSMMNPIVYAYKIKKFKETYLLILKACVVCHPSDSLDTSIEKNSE
UniProt P25099, whole entry: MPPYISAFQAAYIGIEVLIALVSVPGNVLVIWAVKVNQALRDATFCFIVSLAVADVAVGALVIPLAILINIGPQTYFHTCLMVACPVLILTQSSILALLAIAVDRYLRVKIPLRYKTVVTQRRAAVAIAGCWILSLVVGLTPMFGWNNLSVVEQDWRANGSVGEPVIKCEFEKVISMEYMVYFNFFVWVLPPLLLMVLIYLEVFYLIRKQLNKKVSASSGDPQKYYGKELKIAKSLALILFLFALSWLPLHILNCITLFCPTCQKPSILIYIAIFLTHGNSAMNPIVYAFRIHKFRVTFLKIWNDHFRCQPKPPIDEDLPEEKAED
UniProt P30543, whole entry: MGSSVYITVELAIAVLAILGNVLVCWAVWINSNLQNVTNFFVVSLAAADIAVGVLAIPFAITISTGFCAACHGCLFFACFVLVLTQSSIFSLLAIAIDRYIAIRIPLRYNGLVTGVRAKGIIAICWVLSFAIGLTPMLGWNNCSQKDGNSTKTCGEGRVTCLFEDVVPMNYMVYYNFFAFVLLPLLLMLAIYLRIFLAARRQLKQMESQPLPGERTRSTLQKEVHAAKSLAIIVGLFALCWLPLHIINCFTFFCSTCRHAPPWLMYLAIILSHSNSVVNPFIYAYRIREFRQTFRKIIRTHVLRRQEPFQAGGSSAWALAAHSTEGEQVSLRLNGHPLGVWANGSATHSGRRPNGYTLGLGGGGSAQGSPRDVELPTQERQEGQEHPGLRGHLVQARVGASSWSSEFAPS

Key:
[1] = biological target: Adenosine receptor A3 (Homo sapiens) (UniProt P0DMS8); test: Ability to displace [125I]-AB-MECA binding from adenosine A3 receptor.
[2] = biological target: Adenosine receptor A1 (Rattus norvegicus) (UniProt P25099); test: Ability to displace [3H]N6-phenylisopropyladenosine binding from adenosine A1 receptor.
[3] = biological target: Adenosine receptor A2a (Rattus norvegicus) (UniProt P30543); test: Ability to displace [3H]-CGS- 21680 binding from adenosine A2A receptor.

pKi(uM) [1]	pKi(uM) [2]	pKi(uM) [3]	Compound
0.5	-0.04		CCCOc1cc(OCCC)c2c(=O)c(OCCC)c(-c3ccccc3)oc2c1
-0.6	-1.6		CCCOc1c2ccoc2cc2oc(/C=C/c3ccccc3)cc(=O)c12
-0.42	-1.44	-1.67	COc1ccc(-c2oc3cc(OC)cc(OC)c3c(=O)c2OC)c(OC)c1
	-1.51		CCOc1ccc(-c2oc3cc(OCC)cc(OCC)c3c(=O)c2OCC)c(OCC)c1
